# Patent publication US7838542B2, “Bicyclic compositions and methods for modulating a kinase cascade” (Kinex Pharmaceuticals, LLC, priority 2006, dated 2010)
# Target: pp60^c-src (Homo sapiens, UniProt P12931)
# Assay: Src inhibition (RR-SRC phosphorylation), Cellular Mimetic assay
structure (smiles),measurement,value
"N#C/C(=C\c1ccc(O)c(O)c1)C(N)=S [Tyrophostin A47, Tyrphostin A47, reference compound]",% Inhibition at 100 μM (std. dev.),43 (+/−3) %
